Patent US10301354B2, “Antibacterial and fungicidal peptide in which lysine and tryptophan residues are repeated, and use thereof” (priority 2011, dated 2019)
Values after ≈ are worked out from the molar mass of the structure shown. Like-named read-outs stand apart in the source and are kept apart here.

Legend:
human erythrocytes = assay: Hemolytic activity (cytotoxicity); type: cell-based; conditions: 200 μM peptide, 8% human erythrocytes in PBS, 37° C., 1 hour; 1% triton X-100 = 100%
Experimental: Particularly, human erythrocytes were diluted in phosphate buffered saline (PBS, pH 7.0) at the concentration of 8%, to which the peptide 2-fold diluted from 200 μM/well was added, followed by reaction at 37° C. for 1 hour. Centrifugation was performed at 1,000 g and the level of hemoglobin included in the supernatant was measured by measuring OD414. To examine hemolysis, 1% triton X-100 was added to human erythrocytes, followed by measuring absorbance of the supernatant. The hemolytic activity of 1% triton X-100 was regarded as 100%, with which hemolytic activity of each antibacterial peptide was compared. The result was presented by the numbers calculated by the following mathematical formula 1. % hemolysis=(absorbance A−absorbance B/absorbance A−absorbance B)×100 [Mathematical Formula 1]
In the above formula, absorbance A indicates the absorbance of the peptide solution measured at 414 nm, absorbance B indicates the absorbance of PBS measured at 414 nm, and absorbance C indicates the absorbance of 1% triton X-100 measured at 414 nm.

P. aeruginosa = type: cell-based, Psedomonas aeruginosa
Excerpt: (§1) To measure the antibacterial activity of the peptide prepared in Example 1, the present inventors measured MIC, the minimal concentration that can keep the strain without being divided. For the measurement of antibacterial activity, Gram-positive bacteria selected from the group consisting of Bacillus subtilis, Staphylococcus aureus and Listeria monocytogenes, Gram-negative bacteria selected from the group consisting of Escherichia coli, Psedomonas aeruginosa and Salmonella typhimurium, and antibiotic-tolerant strains selected from the group consisting of E. coli (E. coli CCARM 1229, 1238), Salmonella (S. typhimurium CCARM 8007, 8009, 8013) and Staphylococcus (S. aureus CCARM 3089, 3090, 3108, 3114, 3126) were used. After cultured in optimal media, the strains were diluted at the density of 2×10^5 cells/ml, which were then inoculated on microtitrate plates. The peptide synthesized in Example 1 and the positive control peptide (Melittin) were 2-fold diluted in sodium phosphate buffer and phosphate buffered saline (PBS) from 200 μM/well, which were added in the plate, followed by culture at 37° C. for 18˜24 hours. OD620 was measured with a microtitrate plate reader to determine MIC of each strain. The results are presented in Table 1 (the number in bracket indicates the one obtained from PBS).

B. subtilis = type: cell-based, Bacillus subtilis
Excerpt: as §1

E. coli = type: cell-based, Escherichia coli
Excerpt: as §1

E. coli CCARM 1229 = type: cell-based, Escherichia coli
Excerpt: as §1

S. aureus = type: cell-based, Staphylococcus aureus
Excerpt: as §1

S. typhimurium = type: cell-based, Salmonella typhimurium
Excerpt: as §1

Q: What does the source list for `CC[C@H](C)[C@H](NC(=O)CN)C(=O)NCC(=O)N[C@@H](C)C(=O)N[C@H](C(=O)N[C@@H](CC(C)C)C(=O)N[C@@H](CCCCN)C(=O)N[C@H](C(=O)N[C@@H](CC(C)C)C(=O)N[C@H](C(=O)N[C@H](C(=O)NCC(=O)N[C@@H](CC(C)C)C(=O)N1CCC[C@H]1C(=O)N[C@@H](C)C(=O)N[C@@H](CC(C)C)C(=O)N[C@H](C(=O)N[C@@H](CO)C(=O)N[C@@H](Cc1c[nH]c2ccccc12)C(=O)N[C@H](C(=O)N[C@@H](CCCCN)C(=O)N[C@@H](CCCNC(=N)N)C(=O)N[C@@H](CCCCN)C(=O)N[C@@H](CCCNC(=N)N)C(=O)N[C@@H](CCC(N)=O)C(=O)N[C@@H](CCC(N)=O)C(N)=O)[C@@H](C)CC)[C@@H](C)CC)[C@@H](C)O)[C@@H](C)O)C(C)C)C(C)C` [Melittin]?
A: Hemolysis (hemolytic activity) (human erythrocytes): 100%; MIC (P. aeruginosa; PBS (number in bracket)): (3.12) μM; MIC (P. aeruginosa; sodium phosphate buffer): 3.12 µM (≈ 8.88 µg/mL); MIC (B. subtilis; PBS (number in bracket)): (3.12) μM; MIC (B. subtilis; sodium phosphate buffer): 1.56 µM (≈ 4.44 µg/mL); MIC (E. coli; PBS (number in bracket)): (1.56) μM; MIC (E. coli; sodium phosphate buffer): 1.56 µM (≈ 4.44 µg/mL); MIC (E. coli CCARM 1229; PBS (number in bracket)): (3.12) μM; MIC (E. coli CCARM 1229; sodium phosphate buffer): 3.12 µM (≈ 8.88 µg/mL); MIC (S. aureus; PBS (number in bracket)): (1.56) μM; MIC (S. aureus; sodium phosphate buffer): 1.56 µM (≈ 4.44 µg/mL); MIC (S. typhimurium; PBS (number in bracket)): (0.39) μM; MIC (S. typhimurium; sodium phosphate buffer): 0.39 µM (≈ 1.11 µg/mL)
